Sequences of proteins named here, by UniProt entry; tags and fusion partners are left off. A line that says so, or that is headed by a name, gives the form on record, which may keep a tag or linker. Residues count along the entry.
UniProt Q96LA8, 2-375 with tags or gaps: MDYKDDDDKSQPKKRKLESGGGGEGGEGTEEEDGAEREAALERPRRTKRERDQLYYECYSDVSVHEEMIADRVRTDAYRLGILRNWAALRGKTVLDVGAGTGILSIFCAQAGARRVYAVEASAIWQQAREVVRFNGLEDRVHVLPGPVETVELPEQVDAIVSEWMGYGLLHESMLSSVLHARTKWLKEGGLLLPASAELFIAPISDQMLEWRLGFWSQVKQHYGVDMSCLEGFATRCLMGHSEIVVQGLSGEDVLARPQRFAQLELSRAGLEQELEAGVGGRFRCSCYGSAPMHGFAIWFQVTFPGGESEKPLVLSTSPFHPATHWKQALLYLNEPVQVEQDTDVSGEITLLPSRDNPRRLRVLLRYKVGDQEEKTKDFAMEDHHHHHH

In patent US9630961B2, “Arginine methyltransferase inhibitors and uses thereof” (Epizyme, Inc., priority 2013, dated 2017):

Target: PRMT6 (Homo sapiens, UniProt Q96LA8)
Test: PRMT6 Biochemical Assay (3H-SAM Flashplate, peptide substrate)
Conditions: read-out: Biochemical IC50 PRMT6; 30 min preincubation, room temperature
Description: S-adenosylmethionine (SAM), S-adenosylhomocysteine (SAH), bicine, Tween20, dimethylsulfoxide (DMSO), bovine skin gelatin (BSG), sodium butyrate and Tris(2-carboxyethyl)phosphine hydrochloride solution (TCEP) were purchased from Sigma-Aldrich at the highest level of purity possible. ^3H-SAM was purchase from American Radiolabeled Chemicals with a specific activity of 80 Ci/mmol. 384-well streptavidin Flashplates were purchased from PerkinElmer.
Peptide representative of human histone H4 residues 36-50 was synthesized with an N-terminal linker-affinity tag motif and a C-terminal amide cap by 21st Century Biochemicals. The peptide was purified by high-performance liquid chromatography (HPLC) to greater than 95% purity and confirmed by liquid chromatography mass spectrometry (LC-MS). The sequence was Biot-Ahx-RLARRGGVKRISGLI-amide and contained a monomethylated lysine at position 44 (SEQ ID NO.:5).
Full-length human PRMT6 (NM_018137.2) transcript clone was amplified from an HEK 293 cDNA library, incorporating a flanking 5′ sequence encoding a FLAG tag (MDYKDDDDK) (SEQ ID NO.:6) fused directly to Ser 2 of PRMT6 and a 3′ sequence encoding a hexa His sequence (HHHHHH) fused directly to Asp 375. The amplified gene was subcloned into pFastBacMam (Viva Biotech).
Recombinant baculovirus were generated according to Bac-to-Bac kit instructions (Life Technologies). […]

| SMILES | IC50 |
| --- | --- |
| CNCCN(C)Cc1c[nH]nc1-c1cncnc1 | 1010 to 3000 nM |
| CNCCN(C)Cc1c[nH]nc1-c1csc2ccccc12 | < 100 nM |
